In US5508261A, “Analogs of glycoprotein hormones having altered receptor binding specificity and activity and methods for preparing and using same” (University of Medicine & Dentistry of New Jersey, priority 1995, dated 1996):

Key:
[1] = Half-life in rat serum after i.v. injection, by sandwich immunoassay; assay type: in vivo; conditions: 5-15 micrograms i.v.
Protocol: FIG. 6 illustrates the half lives of hCG isolated from the urine of pregnant women (uhCG), hCG made in cell culture (rhCG), hFSH made in cell culture (rhFSH), DG (CF94-117) made in cell culture, and PRM1 (CFC94-114) made in cell culture. In these experiments, 5-15 micrograms of the proteins were injected intravenously into the external jugular vein of rats that had been anesthetized with ether. At the times indicated on the abscissa, the rats were reanesthetized and 0.2 ml of blood withdrawn and allowed to clot. The serum from this blood was obtained by centrifuging the clotted blood at 2000×g for 30 minutes. For measurements of hCG, DG, and PRM1, aliquots of the serum (0.1-50 microliters) were used in sandwich immunoassays employing A113 as a capture antibody and radioiodinated B105 as a detection antibody. hCG purified from urine was used as a standard curve to measure hCG, DG, and PRM1. […] FIG. 6 illustrates that all the analogs can be detected in serum for several hours after they have been injected into rats. The value obtained at 1 hour was normalized to be 100% and the amounts of materials that remained after this time were expressed as a percentage of the amount at 1 hour. […]

[2] = tested on: bovine testes FSH receptors; experiment: Inhibition of 125I-hFSH binding to bovine testes tissue homogenates (radioligand receptor assay); conditions: competition with 125I-hFSH
Protocol: (§1) These values were obtained by dividing the concentration of analog required to inhibit ^125 I-hCG binding to rat luteal ovarian LH receptors or ^125 I-hFSH binding to bovine testes FSH receptors by 50% into that required for recombinant hCG and recombinant hFSH, respectively. The concentrations of the analogs were determined by sandwich immunoassay using antibodies B105 and All3. The term "N.D." means not determined because concentrations of analog were not employed high enough to detect 50% inhibition.
(§2) An aliquot of the ligation mixture was taken and used to transform DH5-alpha strain E. coli. (obtained from Bethesda Research Laboratories, Gaithersburg, Md.). Plasmid DNAs from ampicillin-resistant DH5-alpha clones were screened by digestion with BglII (which is unique to vectors containing the cassette) and EcoRI (which cuts in the vector). Positive clones were identified by the presence of two fragments (approximately 0.8 Kbp and 2.9 Kbp). […] These were present in the culture media and heterodimer was detected using sandwich immunoassays employing monoclonal antibodies All3 and B105 (10). The protein was concentrated by ultrafiltration and monitored for its abilities to bind to LH and FSH receptors by radioligand receptor assays using ^125 I-hCG and ^125 I-hFSH as tracers and rat ovarian corpora lutea and bovine testes as sources of LH and FSH receptors as described (10). […]

[3] = tested on: rat luteal ovarian LH receptors; experiment: Inhibition of 125I-hCG binding to rat corpora luteal LH receptors (radioligand receptor assay); conditions: competition with 125I-hCG, rat corpora lutea
Protocol: as §1, §2

| Substance | Time detectable in serum after injection [1] [h] | Binding to FSH receptors (in words) [2] | Binding to LH receptors (in words) [3] |
| --- | --- | --- | --- |
| Urinary hCG: hCG isolated from the urine of pregnant women | ≥ 24 |  |  |
| rhCG: recombinant human chorionic gonadotropin, hCG made in cell culture [reference compound] | ≥ 24 | several orders of magnitude greater than that of hFSH |  |
| rhFSH: recombinant human follicle stimulating hormone, hFSH made in cell culture [reference compound] |  |  | several orders of magnitude greater than that of hCG |
